In patent US8920559B2, “Screening for solid forms by ultrasound crystallization and cocrystallization using ultrasound” (Aptuit (West Lafayette), LLC, priority 2004, dated 2014):

Details: cocrystal compared with crystals of fluoxetine HCl

- dissolution rate: faster dissolution rate
Substance: fluoxetine HCl:succinic acid
